This note sets out measurements from PubChem BioAssay AID687020 (Broad Institute, 2013).

Molecules are shown by their SMILES. The entries are a selection whose mix differs from that of the whole data set. Potency and affinity values are given separately. Active and inactive are the calls of the source. The rule behind the calls is not given here.

A short description of this experiment: Vero cell toxicity, dose response, cytotoxicity control, plate reader, cherry-pick samples (AID 687020).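 Note: compounds incubated with cells for three days before luminescence read.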 As to conditions: Vero cells toxicity; at 19.5 µM (top of the series).
As for `CCOC(=O)c1ccc(NP(C)(=O)Oc2ccc(Cl)cc2)cc1` (stereo unspecified), the activity change, negative = toxicity was inactive: -14.3%.
